# Yeast mating assay 1: variants of the scFv Ab-14

The measurements come from Engelhart et al. 2022 (doi:10.1038/s41597-022-01779-4) through the FLAb antibody collection.

Binding partner: SARS-CoV-2 spike HR2 peptide, sequence PDVDLGDISGINAS.

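The starting antibody came from a phage panning campaign against this peptide. In library AAYL50, one, two or three CDR residues were substituted; doubles and triples were drawn at random. AlphaSeq pools MATa yeast showing the antibodies with MATalpha yeast showing the peptide. The frequency of each diploid, read from paired DNA barcodes, reflects how well the two displayed proteins bind. A regression on co-assayed BCL2-family reference pairs converts the normalised counts of each replicate to an apparent Kd. Mating was done three times.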

Ab-14 is the parent antibody, in scFv form: VH, then three GGGGS repeats, then VL. The heavy chain is unchanged in all variants.
VH: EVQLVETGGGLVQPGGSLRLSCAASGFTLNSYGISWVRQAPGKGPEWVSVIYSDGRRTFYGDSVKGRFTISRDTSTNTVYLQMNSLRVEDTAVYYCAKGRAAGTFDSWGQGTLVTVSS
VL: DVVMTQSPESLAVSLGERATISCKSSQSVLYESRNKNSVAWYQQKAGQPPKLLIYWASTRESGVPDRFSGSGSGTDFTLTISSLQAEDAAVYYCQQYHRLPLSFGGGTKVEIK

The parent's light chain CDRs are KSSQSVLYESRNKNSVA, WASTRES, QQYHRLPLS; each variant's own CDRs replace them letter for letter. Scale: log10 of Kd in nM, estimated from mating counts; low values are strong binders. Where no diploid with the target was found in that replicate, the entry reads "ND": below detection, most likely a poor binder, though not proof of it. Parent in this assay: reference entry 0.65, copy in this library 1.68. Background: pairings of library AAYL50 with three empty control strains gave a value in 18% of cases (median 4.19, 5th percentile 2.99). Values in that range, when seen in few replicates, are hard to tell from nonspecific mating. Also given: how often the same scFv was detected with the empty control strains, with their mean in brackets.

CDR-L1	CDR-L2	CDR-L3	replicates, log10 nM	empty controls
KSSQSVFNESRNKNSVA	WASMRES	QQYHRLPLS	0.53 0.81 0.67	1/9 (4.55)
KSSQSVLYESRNKNSVI	WASTIES	QQYHRLSLS	ND ND ND	0/9
KSSKSVLYESRNKNSVA	WASTRAS	QQYARLPLS	3.63 ND ND	0/9
KSSQSVLYESRKKNSVA	WASTRES	QQMHRLPLS	ND ND ND	0/9
KSSQSVLYESRNKNSVA	IASTRES	PQYHRLGLS	ND 3.71 ND	2/9 (3.94)
KSSQSVLYESINKNSVA	WASGRES	QQYHQLPLS	2.00 1.99 2.07	2/9 (4.62)
KSSTSVWYESRNKNSVA	WASTRES	QQYHRLCLS	ND ND ND	0/9
KSSQSVLYMSRNKRSNA	WASTRES	QQYHRLPLS	ND ND ND	1/9 (3.54)
KSQQSVLYESRNKNSVA	WISTRES	QQYHRIPLS	2.92 ND ND	3/9 (3.42)
KSSQSVIYESRNKNSVA	WCSTNES	QQYHRLPLS	5.08 ND 4.21	3/9 (4.50)
KSSQRVLYESRNKNSVA	WASTRES	QQYHRLPAQ	ND ND ND	0/9
KSSQSVLYESRNKNSQA	WASTRES	QDPHRLPLS	ND 4.66 ND	2/9 (4.92)
KSSHSVLYHSRNKNSVQ	WASTRES	QQYHRLPLS	ND 4.58 ND	5/9 (4.45)
KSSQSVLYVQRNKNSVA	WASTRES	QQYHRLDLS	2.47 2.74 3.22	2/9 (3.64)
KSSQSVCYESRNKNSVA	WASTRES	QQYHRLPVS	ND ND ND	0/9
KSEQSVLEESRNKNSVA	WASTRES	QQYYRLPLS	0.97 1.05 1.13	8/9 (4.62)
KSSQSVLYESRNKNHVA	WASTRES	QWYHRNPLS	ND ND ND	0/9
KSSRSVLYESRYKNSVA	WASTRES	QQYHVLPLS	2.32 1.51 2.06	0/9
KSSQSVLYEVRNKNSVA	WASTREA	QQYHRLYLS	ND ND ND	0/9
KSPQSVLYESRNKNSVA	WASTRES	QQYHRLSLS	ND ND ND	1/9 (3.22)
KSSQSVLSESRNCNSVA	WASTRES	QQYHRLNLS	1.84 1.65 2.42	0/9
KSSRSVLYESRNKNSVA	WASTRKS	QQYHRLPLR	2.51 2.31 2.33	3/9 (4.68)
KSSMSVLYESRNKNSVA	WASTRES	QQYHSLPLS	1.37 1.41 1.52	3/9 (4.69)
KSSQSVLYESRNKNEVA	WASLRES	QFYHRLPLS	3.32 4.33 3.36	1/9 (4.89)
KSRQSVLYESRNCNSVA	WASTRES	KQYHRLPLS	ND ND 6.19	3/9 (4.87)
KSSQSVLYESCNKNDVA	WASTREA	QQYHRLPLS	1.89 2.10 2.34	0/9
KSSQSVLYESRNKNSEA	WASTRGS	QQIHRLPLS	ND ND 4.81	2/9 (4.54)
KSSMSVLYESRNENSVA	WASTRES	QQKHRLPLS	1.54 1.27 1.08	0/9
KSSQSVLYEIRNKNSVA	WASTNTS	QQYHRLPLS	3.39 ND ND	2/9 (3.58)
KSSQSVLYESRDKKSVA	WASTRES	QQYHRFPLS	1.87 2.13 1.85	0/9
KSSQSVYYDSRNKNPVA	WASTRES	QQYHRLPLS	1.28 1.00 0.91	1/9 (4.35)
KSSQSYLYESENKNSWA	WASTRES	QQYHRLPLS	3.02 ND ND	3/9 (3.67)
KYSQDVLYESRNKNSVA	WASTREM	QQYHRLPLS	0.70 0.96 0.92	4/9 (4.70)

The closing 4 entries, repeated:

| CDR-L1 | CDR-L2 | CDR-L3 | replicates, log10 nM | empty controls |
|---|---|---|---|---|
| KSSQSVLYESRDKKSVA | WASTRES | QQYHRFPLS | 1.87 2.13 1.85 | 0/9 |
| KSSQSVYYDSRNKNPVA | WASTRES | QQYHRLPLS | 1.28 1.00 0.91 | 1/9 (4.35) |
| KSSQSYLYESENKNSWA | WASTRES | QQYHRLPLS | 3.02 ND ND | 3/9 (3.67) |
| KYSQDVLYESRNKNSVA | WASTREM | QQYHRLPLS | 0.70 0.96 0.92 | 4/9 (4.70) |